{
  "sequences": {"note": "Amino acid sequences for entries named in this document (tags omitted). Residues count along the entry.", "UniProt P11021, 19-654 limits assumed": "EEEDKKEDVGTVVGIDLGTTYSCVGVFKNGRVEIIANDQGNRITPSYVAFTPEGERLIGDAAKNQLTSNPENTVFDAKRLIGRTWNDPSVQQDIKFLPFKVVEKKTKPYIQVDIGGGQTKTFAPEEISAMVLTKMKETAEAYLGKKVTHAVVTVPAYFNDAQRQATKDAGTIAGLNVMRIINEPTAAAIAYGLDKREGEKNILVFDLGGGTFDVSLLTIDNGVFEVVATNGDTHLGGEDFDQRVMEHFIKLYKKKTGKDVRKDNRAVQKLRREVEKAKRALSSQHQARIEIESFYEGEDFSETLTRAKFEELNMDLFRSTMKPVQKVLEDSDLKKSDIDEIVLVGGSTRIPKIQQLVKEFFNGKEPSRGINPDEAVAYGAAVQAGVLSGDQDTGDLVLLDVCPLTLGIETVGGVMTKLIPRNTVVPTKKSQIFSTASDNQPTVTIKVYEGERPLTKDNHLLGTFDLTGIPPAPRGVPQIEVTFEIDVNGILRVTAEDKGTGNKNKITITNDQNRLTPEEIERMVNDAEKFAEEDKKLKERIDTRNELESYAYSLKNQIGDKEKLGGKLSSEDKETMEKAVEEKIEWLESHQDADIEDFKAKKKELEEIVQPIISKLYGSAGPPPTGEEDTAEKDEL"},
  "source": "patent US20190142913A1",
  "about": "(CREATIVE BIOTHERAPEUTICS, published 2019)",
  "binders": {"B1": {"name": "K5-biotin complex (K5(3-89 Active Zone)frag SEQ ID NO:1-biotin complex) (other)", "chain": "SEEDCMFGNGKGYRGKRATTVTGTPCQDWAAQEPHRHSIFTPETNPRAGLEKNYCRNPDGDVGGPWCYTTNPRKLYDYCDVPQCAAPKS", "modifications": "biotin label, site not stated", "notes": "also called K5-fragment biotin"}},
  "target": "T1, GRP78 (glucose-regulated protein 78), StressMarq (UniProt P11021 19-654, limits assumed)",
  "T1 construct": "Unlabelled GRP78: coated on 96-well plates (ELISA), added to U87 cells, or added at 10 ug/ml to cell cultures; also called soluble GRP78",
  "assay": "ELISA, GRP78 coated on 96-well plate, Neutra-avidin-HRP detection",
  "method": "Comparison of GRP78 binding for the two kringle domains was performed by a GRP78 ELISA. GRP78 (StressMarq) (1 ug/ml@ 100 μl/well) was bound to a tissue culture coated 96 well plate overnight at 4° C. After washing 3× with PBS, the plates were blocked with superblock (Pierce) for 1 hour at room temperature. The block was removed and K5-biotin complex (i.e., K5(3-89 Active Zone)frag SEQ ID NO:1-biotin complex) and Kr1-biotin complex (i.e., Kr1(1-91 Active Zone)frag SEQ ID NO:19-biotin complex) were added to the plate at increasing concentrations (0.1 pM to 100 nM) at 4° C. for 2 hours. The plate was then washed 3× with PBS again and Neutra-avidin-HRP was added to the wells for 1 hour at room temperature. The wells were washed again with PBS and one step TMB (Pierce) was added to the wells with absorbance recorded after 30 minutes to measure kringle binding. […] To analyze these peptides for binding to GRP78, we used a 96 well competition binding assay. The assay consisted of binding GRP78 to a tissue coated 96 well plate as listed above. […] After the plate was washed, Neutra-avidin-HRP was added and bound K5 was measured by adding HRP substrate, TMB, as listed above.",
  "data": [
    {"binder": "B1", "values": [
      {"measurement": "Kd", "result": 0.6, "unit": "nM"}
    ]}
  ]
}
